This series has as its target T1, GST-poly(Glu, Tyr) substrate.
T1 chain: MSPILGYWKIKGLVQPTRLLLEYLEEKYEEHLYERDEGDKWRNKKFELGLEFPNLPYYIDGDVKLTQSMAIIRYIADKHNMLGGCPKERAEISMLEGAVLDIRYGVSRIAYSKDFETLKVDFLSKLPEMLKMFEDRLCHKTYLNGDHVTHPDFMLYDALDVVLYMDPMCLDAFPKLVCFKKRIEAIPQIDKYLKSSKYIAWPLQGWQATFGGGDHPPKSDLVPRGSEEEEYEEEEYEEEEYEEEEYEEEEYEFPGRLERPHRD

B1: EGF Receptor 1 Kinase (protein)
chain: HIVRKRTLRRLLQERELVEPLTPSGEAPNQALLRILKETEFKKIKVLGSGAFGTVYKGLWIPEGEKVKIPVAIKELREATSPKANKEILDEAYVMASVDNPHVCRLLGICLTSTVQLITQLMPFGCLLDYVREHKDNIGSQYLLNWCVQIAKGMNYLEDRRLVHRDLAARNVLVKTPQHVKITDFGLAKLLGAEEKEYHAEGGKVPIKWMALESILHRIYTHQSDVWSYGVTVWELMTFGSKPYDGIPASEISSILEKGERLPQPPICTIDVYMIMVKCWMIDADSRPKFRELIIEFSKMARDPQRYLVIQGDERMHLPSPTDSNFYRALMDEEDMDDVVDADEYLIPQQGFFSSPSTSRTPLLSSLSATSNNSTVACIDRNGLQSCPIKEDSFLQRYSSDPTGALTEDSIDDTFLPVPEYINQSVPKRPAGSVQNPVYHNQPLNPAPSRDPHYQDPHSTAVGNPEYLNTVQPTCVNSTFDSPAHWAQKGSHQISLDNPDYQQDFFPKEAKPNGIFKGSTAENAEYLRVAPQSSEFIGA
For the protein B1, the “phosphorylation of the substrate, Western blotting with anti-phosphotyrosine” value is “At + of all (i to vii) of FIG. 1, a single band was seen at positions where the phosphorylated GST-poly (Glu, Tyr) substrate appears”.
